Structures are written as SMILES. Where only a bound is given, the exact number is not on record here.

Chains of the proteins cited; added tags and fusions are not shown.
UniProt Q99873, whole entry: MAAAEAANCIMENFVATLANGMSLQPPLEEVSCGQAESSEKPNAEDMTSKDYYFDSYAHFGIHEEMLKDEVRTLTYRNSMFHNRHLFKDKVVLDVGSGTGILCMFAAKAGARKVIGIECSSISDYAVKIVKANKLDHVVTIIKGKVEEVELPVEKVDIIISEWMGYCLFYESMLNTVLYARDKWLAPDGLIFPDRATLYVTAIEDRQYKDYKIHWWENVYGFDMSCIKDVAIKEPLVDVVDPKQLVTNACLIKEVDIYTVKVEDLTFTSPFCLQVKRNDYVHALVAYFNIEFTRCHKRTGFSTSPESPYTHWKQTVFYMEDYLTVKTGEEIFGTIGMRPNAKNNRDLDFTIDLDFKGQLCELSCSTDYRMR

One assay relates to Toledo cells. Briefly: Toledo cell proliferation inhibition assay. The note with it: read-out: Toledo cell proliferation inhibition IC50; six-day assay, CellTiter-Glo. As for the experimental part: • A. Purpose: to determine the effects of compounds on Toledo cells through a six-day cell proliferation assay. • B. Reagents and materials: • 1. Cell culture medium: RPMI 1640+10% FBS • 2. 384-well cell culture plate (Corning, item #3764) • 3. 0.4% Taipan Blue Staining Solution (Thermo Fisher, item #T10282) • 4. cell counting plate (Thermo Fisher, item #C10228) • 5. 50 ml reagent reservoir (Corning, item #4870) • 6. 50 ml conical sterile polypropylene centrifuge tube (Thermo Fisher, item #339653) • 7. Automatic cell counter (Thermo Fisher, item #AMQAX1000) • 8. CellTiter-Glo Luminescent Cell Viability Detection Reagent (Promega, item #G7572) • 9. SpectraMax i3x Multi-Mode Enzyme Labeling Instrument (Megaman Molecular Instruments, item #5024062) • C. Experimental method • 1. Resuspending the cells with a pipette. • 2. 0.4% Taipan blue staining solution and Toledo cells were mixed in equal proportion, and the cells were counted using an automatic cell counter. • 3. Toledo cells were diluted to a final concentration of 2000 cells per well and transferred to a 50 ml reagent reservoir. • 4. Diluted Toledo cells were added to a 384-well cell culture plate, 40 ul per well. • 5. The cells were shortly centrifuged and settled. • 6. The cells were incubated in a 37° C., 5% CO2 cell culture incubator. • 7. […] Signal of luminescence was detected with a SpectraMax i3x multi-mode enzyme labeling instrument.

The next assay addresses PRMT1 (Homo sapiens, UniProt Q99873). In words: PRMT1 enzyme activity test. The note with it: read-out: PRMT1 IC50; 0.5 nM PRMT1, 3H-SAM, peptide. As for the experimental part:
PRMT1 enzyme activity test were performed in a buffer prepared on the same day 5 consisting of 10 mMTirs-HCl (pH=8.0), 0.01% Tween-20 and 1 mM DTT. The compounds were prepared to the highest inhibitor concentration ultimately required in the 100× reaction with 100% DMSO and then transferred to one well of a 384-well Echo plate (Echo-eligible 384-well polypropylene microplates 2.0, transparent, flat-bottomed) and sequentially diluted in the next well with a 3-fold dilution of 100% DMSO, and so on, with a total of 10 concentrations based on Precision. 100% DMSO was added to two empty wells to serve as control well without compound and control well without enzyme in the same 384-well Echo plate. 250 nL of compound was transferred from each well of the 384-well Echo plate to a 384-well assay plate (384-well polypropylene storage microplate) via the Echo 550 liquid processor. […] After 120 min of incubation, the assay was terminated by the addition of non-radiolabeled SAM (5 uL) to a final concentration of 125 uM, which diluted 3H-SAM to a level at which its incorporation into the peptide substrate was no longer detected. […] Plates were read on a microplate counter (MicroBeta2) to measure the amount of ^3H-labeled peptide bound to the surface of the detection plate, measured in counts per minute (cpm). […]

In the case of `CNCCN(C)Cc1ncccc1C1CCCC(COC)CC1` (stereo not shown), the IC50 in the assay on Toledo cells was 1 to 5 µM; at PRMT1, less than 50 nM.

For the compound `CCOCC1(COCC)CC=C(c2cnccc2CN(C)CCNC)CC1`, the values for the IC50 with Toledo cells and on PRMT1 were greater than 5 µM and 50 to 500 nM, respectively.

These data come from US20240307409A1, “ARGININE METHYLTRANSFERASE INHIBITOR AND USE THEREOF” (Cytosinlab Therapeutics Co., Ltd., priority 2021, published 2024).
